US7524826

Tests used:
[1] = molecular target: antithrombin of human plasma (human) (UniProt P01008); test: ELISA of thrombin-antithrombin complex, plasma on wild type T24/83 cells
[2] = molecular target: antithrombin of human plasma (human) (UniProt P01008); test: ELISA of thrombin-antithrombin complex, plasma on GRP78/BiP overexpressing T24/83 cells
[3] = molecular target: antithrombin of human plasma (human) (UniProt P01008); test: ELISA of thrombin-antithrombin complex, plasma on vector-transfected (pcDNA) T24/83 cells
[4] = molecular target: α2 macroglobulin of human plasma (human) (UniProt P01023); test: chromogenic assay after inhibiting free thrombin, plasma on wild type T24/83 cells
[5] = molecular target: α2 macroglobulin of human plasma (human) (UniProt P01023); test: chromogenic assay after inhibiting free thrombin, plasma on GRP78/BiP overexpressing T24/83 cells
[6] = molecular target: heparin cofactor II of human plasma (human) (UniProt P05546); test: ELISA of thrombin-heparin cofactor II complex, plasma on wild type T24/83 cells
plasma inhibitors [7] = test: sum of thrombin-inhibitor complexes in plasma on vector-transfected (pcDNA) T24/83 cells
plasma inhibitors [8] = test: sum of thrombin-inhibitor complexes in plasma on wild type T24/83 cells
plasma inhibitors [9] = test: sum of thrombin-inhibitor complexes in plasma on GRP78/BiP overexpressing T24/83 cells
[10] = molecular target: heparin cofactor II of human plasma (human) (UniProt P05546); test: ELISA of thrombin-heparin cofactor II complex, plasma on vector-transfected (pcDNA) T24/83 cells
[11] = molecular target: α2 macroglobulin of human plasma (human) (UniProt P01023); test: chromogenic assay after inhibiting free thrombin, plasma on vector-transfected (pcDNA) T24/83 cells
[12] = molecular target: heparin cofactor II of human plasma (human) (UniProt P05546); test: ELISA of thrombin-heparin cofactor II complex, plasma on GRP78/BiP overexpressing T24/83 cells

| Substance | concentration of thrombin covalently bound to inhibitor [1] [nM] | concentration of thrombin covalently bound to inhibitor [2] [nM] | concentration of thrombin covalently bound to inhibitor [3] [nM] | concentration of thrombin covalently bound to inhibitor [4] [nM] | concentration of thrombin covalently bound to inhibitor [5] [nM] | concentration of thrombin covalently bound to inhibitor [6] [nM] | concentration of thrombin covalently bound to inhibitor (plasma inhibitors [7]) [nM] | concentration of thrombin covalently bound to inhibitor (plasma inhibitors [8]) [nM] | concentration of thrombin covalently bound to inhibitor (plasma inhibitors [9]) [nM] | concentration of thrombin covalently bound to inhibitor [10] [nM] | concentration of thrombin covalently bound to inhibitor [11] [nM] | concentration of thrombin covalently bound to inhibitor [12] [nM] |
| --- | --- | --- | --- | --- | --- | --- | --- | --- | --- | --- | --- | --- |
| thrombin generated from normal pooled human plasma (from UniProt P00734 328-622) (enzyme; other documents disagree on this pair) | 631 | 161 | 610 |  |  |  |  |  |  |  |  |  |
| thrombin generated from normal pooled human plasma (from UniProt P00734 328-622) (enzyme) |  |  |  | 112 | 93 | 16 | 752 | 759 | 266 | 18 | 124 | 12 |
